Laboratory results published in patent US8143426B2, “IAP inhibitors” (TetraLogic Pharmaceuticals Corporation, priority 2006, dated 2012).

Amino acid sequences for entries named in this document (tags omitted). Residues count along the entry.
UniProt P98170, 241-356 limits assumed: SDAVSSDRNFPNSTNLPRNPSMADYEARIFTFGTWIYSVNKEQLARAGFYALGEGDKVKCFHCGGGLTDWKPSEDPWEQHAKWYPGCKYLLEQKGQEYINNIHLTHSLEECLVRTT

Target: XIAP BIR3 (Homo sapiens, UniProt P98170)
Assay: Fluorescence polarization binding of IAP antagonists to IAP-BIR3 (competition with AbuRPF-K(5-Fam)-NH2)
Details: Table 1, monomeric IAP antagonists (sugar-modified)
Procedure: The binding affinity of illustrative compounds of the present invention to an IAP was determined substantially as described by Nikolovska-Coleska, Z. et. al. (Analytical Biochemistry (2004), vol. 332:261-273) using a variety of fluorogenic substrates and is reported as a Kd value. Briefly, various concentrations of IAP antagonists were mixed with 5 nM fluorescently labeled peptide (AbuRPF-K(5-Fam)-NH2) and 40 nM of an IAP-BIR3 for 15 min at RT in […] of 0.1M Potassium Phosphate buffer, pH 7.5 containing […] bovine g-globulin. Following incubation, the polarization values (mP) were measured on a Victor2V using a 485 nm excitation filter and a 520 nm emission filter. IC50 values were determined from the plot using nonlinear least-squares analysis using GraphPad Prism.

Kd	SMILES
100 to 1000 nM	CN[C@@H](C)C(=O)N[C@H](C(=O)N1CCC[C@H]1Cc1cn([C@H]2O[C@@H](C)[C@@H](O)[C@@H](O)[C@@H]2O)c2c(C)cccc12)C(C)C
100 to 1000 nM	CN[C@@H](C)C(=O)N[C@H](C(=O)N1CCC[C@H]1Cc1c(-c2ccc(F)cc2)n([C@H]2O[C@@H](C)[C@@H](O)[C@@H](O)[C@@H]2O)c2ccc(C)cc12)C(C)(C)C
100 to 1000 nM	CN[C@@H](C)C(=O)N[C@H](C(=O)N1C[C@@H](O)C[C@H]1Cc1c(-c2ccc(F)cc2)n([C@H]2O[C@@H](C)[C@@H](O)[C@@H](O)[C@@H]2O)c2ccc(C)cc12)[C@@H](C)OC
100 to 1000 nM	CN[C@@H](C)C(=O)N[C@H](C(=O)N1CCC[C@H]1Cc1cn([C@@H]2OC[C@@H](O)[C@H](O)[C@H]2O)c2cc(F)ccc12)C1CCCCC1
< 100 nM	CN[C@@H](C)C(=O)N[C@H](C(=O)N1CCC[C@H]1Cc1cn([C@@H]2OC[C@@H](O)[C@H](O)[C@H]2O)c2cc(F)ccc12)C(C)C
100 to 1000 nM	CN[C@@H](C)C(=O)N[C@H](C(=O)N1CCC[C@H]1Cc1c(-c2ccc(F)cc2)n([C@H]2O[C@@H](C)[C@@H](O)[C@@H](O)[C@@H]2O)c2ccc(C)cc12)[C@@H](C)OC
100 to 1000 nM	CN[C@@H](C)C(=O)N[C@H](C(=O)N1C[C@@H](O)C[C@H]1Cc1c(-c2ccc(F)cc2)n([C@H]2O[C@@H](C)[C@@H](O)[C@@H](O)[C@@H]2O)c2ccc(C)cc12)C(C)(C)C
